Assay results as given in PubChem BioAssay AID1259422 (The Scripps Research Institute Molecular Screening Center, 2018).
Only a part is listed here, and it is no random draw. Some salts and complexes are drawn in separate pieces, as the source files them; their charges need not balance. The source made the active and inactive calls. Rule as the data show it: active = inhibition above about 32%; inactive = the rest.

Test: TEAD-YAP interaction inhibition, primary screen, TEAD-YAP interaction inhibitor project, luminescence, HEK-TIYL cells (AID 1259422);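 also: 0% = median of test compound wells and 100% = reference inhibitor wells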
Details: TEAD-Gal4/YAP UAS-luciferase luminescence, at 9.12 µM, hits give high values

SMILES	inhibition
O=C(Nc1ccccc1O)c1c([N+](=O)[O-])cc([N+](=O)[O-])cc1[N+](=O)[O-]	inactive: 3.98%
CN1CCCC1=C1c2cc([N+](=O)[O-])cc([N+](=O)[O-])c2-c2c1cc([N+](=O)[O-])cc2[N+](=O)[O-]	inactive: 5.45%
CCc1ccc(OP(C)(=O)Nc2ccc(I)cc2)cc1 (centres undefined)	inactive: 2.57%
COc1ccc(OP(C)(=O)Nc2ccc(Br)cc2)cc1 (centres undefined)	inactive: 5.75%
O=[N+]([O-])c1cc([N+](=O)[O-])c(NCc2ccccc2)c([N+](=O)[O-])c1	inactive: -7.78%
COc1ccccc1OP(C)(=O)Nc1c(C)n(C)n(-c2ccccc2)c1=O (centres undefined)	inactive: 20.6%
OCCSCCO	inactive: 6.15%
CP(=O)(Oc1ccccc1)N1CCOC1=O (centres undefined)	inactive: 6.84%
O=[N+]([O-])c1cc([N+](=O)[O-])c(N2CCOCC2)c([N+](=O)[O-])c1	inactive: 7.31%
[O-][n+]1onc2c1c1no[n+]([O-])c1c1no[n+]([O-])c21	inactive: -14.8%
Cc1c([N+](=O)[O-])cc([N+](=O)[O-])c(Nc2ccc(C(=O)O)cc2)c1[N+](=O)[O-]	inactive: 2.76%
COc1cccc(C(OP(C)(=O)O)C(F)(F)F)c1 (centres undefined)	inactive: -8.12%
CP(=O)(Nc1ccc(Cl)cc1)Oc1ccc(F)cc1 (centres undefined)	inactive: 5.24%
CN(C)/C=C(\C=O)c1c([N+](=O)[O-])cc([N+](=O)[O-])cc1[N+](=O)[O-]	inactive: 1.48%
CN(C)C(=O)c1c([N+](=O)[O-])cc([N+](=O)[O-])cc1[N+](=O)[O-]	inactive: 4.06%
O=[N+]([O-])c1cc([N+](=O)[O-])c(Nc2ccccc2CO)c([N+](=O)[O-])c1	inactive: 4.66%
CP(=O)(Nc1ccc(F)c(Cl)c1)Oc1ccccc1 (centres undefined)	inactive: 2.96%
CC(C)c1ccc(OP(C)(=O)O)cc1	inactive: 2.86%
NNc1c([N+](=O)[O-])cc([N+](=O)[O-])cc1[N+](=O)[O-]	inactive: -11.1%
Nc1nonc1-[n+]1nc2nonc2[n-]1	inactive: 13.7%
CP(=O)(Nc1cccc(Cl)c1)Nc1cccc(Cl)c1	inactive: 0.18%
CCOC(=O)c1ccc(NP(C)(=O)Oc2ccc(Cl)cc2)cc1 (centres undefined)	inactive: -11%
CP(=O)(OC12CC3CC(CC(C3)C1)C2)OC12CC3CC(CC(C3)C1)C2	inactive: 3.41%
O=[N+]([O-])c1cc([N+](=O)[O-])c(Nc2ccccc2)c([N+](=O)[O-])c1	inactive: -1.05%
N1=Nc2nonc2N=Nc2nonc21	inactive: 9.59%
C/C1=C2N=C(/C=C3N=C(/C(C)=C4\[N-]C(C(CC(N)=O)C4(C)CCC(=O)NCC(C)OP(=O)([O-])OC4C(CO)OC(n5cnc6cc(C)c(C)cc65)C4O)C4(C)N=C1C(CCC(N)=O)C4(C)CC(N)=O)C(CCC(N)=O)C\3(C)C)C(CCC(N)=O)C/2(C)CC(N)=O.C/C1=C2N=C(/C=C3N=C(/C(C)=C4\[N-]C(C(CC(N)=O)C4(C)CCC(=O)NCC(C)OP(=O)([O-])OC4C(CO)OC(n5cnc6cc(C)c(C)cc65)C4O)C4(C)N=C1C(CCC(N)=O)C4(C)CC(N)=O)C(CCC(N)=O)C\3(C)C)C(CCC(N)=O)C/2(C)CC(N)=O.[C-]#N.[Co+3] (centres undefined)	inactive: 27.6%
CN(c1nc2nonc2nc1N(C)[N+](=O)[O-])[N+](=O)[O-]	inactive: 4.98%

SMILES	inhibition
CCCCOc1ccc(NP(C)(=O)Oc2ccccc2OC)cc1 (centres undefined)	inactive: -0.3%
COc1ccccc1OP(C)(=O)Nc1ccc(C)c(C)c1 (centres undefined)	inactive: 4.2%
COc1ccc(OP(C)(=O)Nc2ccccc2Br)cc1 (centres undefined)	inactive: 1.8%
Cc1cccc(C)c1OP(C)(=O)Nc1ccccc1 (centres undefined)	inactive: 5.91%
COCC(CN(C)[N+](=O)[O-])O[N+](=O)[O-] (centres undefined)	inactive: -17.6%
O=[N+]([O-])c1cc([N+](=O)[O-])c(N2CCCCCC2)c([N+](=O)[O-])c1	inactive: 3.81%
CP(=O)(OCCOc1ccccc1)OCCOc1ccccc1	inactive: -7.91%
CP(=O)(Nc1ccc(Cl)cc1Cl)Oc1ccccc1 (centres undefined)	inactive: -0.42%
CN(C)c1c([N+](=O)[O-])cc([N+](=O)[O-])c(N(C)C)c1[N+](=O)[O-]	inactive: 18.8%
NC(=O)c1c([N+](=O)[O-])cc([N+](=O)[O-])cc1[N+](=O)[O-]	inactive: -3.8%
COc1ccccc1OP(C)(=O)Nc1ccc(Br)cc1 (centres undefined)	inactive: -1.54%
COc1ccc(OP(C)(=O)Nc2ccccn2)cc1 (centres undefined)	inactive: -4.29%
CCN(CC)CCOC(=O)C(O)(c1ccccc1)C1CCCCC1 (centres undefined)	inactive: 9.57%
CN(C)CCOC(=O)C(O)(c1ccccc1)C1CCCC1 (centres undefined)	inactive: 6.76%
Nc1c([N+](=O)[O-])cc([N+](=O)[O-])c(Nc2ccccc2C(=O)O)c1[N+](=O)[O-]	inactive: 11.8%
O=[N+]([O-])c1cc([N+](=O)[O-])c(Nc2ccccn2)c([N+](=O)[O-])c1	inactive: 13.8%
CCOP(C)(=S)SCN(CC(=O)O)C(=O)OCc1ccccc1 (centres undefined)	inactive: -4.38%
Cc1c(NP(C)(=O)Oc2ccc(C(C)C)cc2)c(=O)n(-c2ccccc2)n1C (centres undefined)	inactive: 0.86%
CP(=O)(Nc1ccc(F)cc1)Oc1ccc(Cl)cc1 (centres undefined)	inactive: -0.76%
CC(CN(C)C)OC(=O)C(O)(c1ccccc1)c1ccccc1 (centres undefined)	inactive: 7.97%
CCP1(=O)Oc2cc(C(C)(C)C)cc(C(C)(C)C)c2O1 (centres undefined)	inactive: 0.9%
Nc1c([N+](=O)[O-])cc([N+](=O)[O-])c2nonc12	inactive: 14.8%
C=CCNc1c([N+](=O)[O-])cc([N+](=O)[O-])c(C)c1[N+](=O)[O-]	inactive: -3.4%
CP(=O)(Nc1ccccc1F)Oc1ccccc1 (centres undefined)	inactive: -6.88%
O=C(OCCN1CCN(CCOCc2ccccc2)CC1)C(O)(c1ccccc1)c1ccccc1	inactive: 4.76%
CP(=O)(Nc1cccnc1)Oc1ccc(Cl)cc1 (centres undefined)	inactive: 4.36%
Cc1cc([N+](=O)[O-])c(NCC(C)([N+](=O)[O-])[N+](=O)[O-])c([N+](=O)[O-])c1[N+](=O)[O-]	inactive: 4.58%
